Assay results taken from ChEMBL document CHEMBL1126861 (J Med Chem, 1993).

Protein sequences, listed by entry. Tags and fused reporters are not part of them.
UniProt P33533, whole entry, looked up: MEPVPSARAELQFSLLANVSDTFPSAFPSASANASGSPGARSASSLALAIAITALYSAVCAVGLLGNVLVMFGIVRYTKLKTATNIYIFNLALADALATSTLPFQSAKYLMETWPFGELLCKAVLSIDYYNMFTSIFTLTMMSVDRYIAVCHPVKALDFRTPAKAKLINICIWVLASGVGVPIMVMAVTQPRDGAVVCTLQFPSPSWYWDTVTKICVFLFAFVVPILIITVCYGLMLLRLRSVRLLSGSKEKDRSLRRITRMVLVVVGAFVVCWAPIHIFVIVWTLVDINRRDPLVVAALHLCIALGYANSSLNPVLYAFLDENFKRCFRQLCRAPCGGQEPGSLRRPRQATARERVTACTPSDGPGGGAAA
UniProt P33535, whole entry, looked up: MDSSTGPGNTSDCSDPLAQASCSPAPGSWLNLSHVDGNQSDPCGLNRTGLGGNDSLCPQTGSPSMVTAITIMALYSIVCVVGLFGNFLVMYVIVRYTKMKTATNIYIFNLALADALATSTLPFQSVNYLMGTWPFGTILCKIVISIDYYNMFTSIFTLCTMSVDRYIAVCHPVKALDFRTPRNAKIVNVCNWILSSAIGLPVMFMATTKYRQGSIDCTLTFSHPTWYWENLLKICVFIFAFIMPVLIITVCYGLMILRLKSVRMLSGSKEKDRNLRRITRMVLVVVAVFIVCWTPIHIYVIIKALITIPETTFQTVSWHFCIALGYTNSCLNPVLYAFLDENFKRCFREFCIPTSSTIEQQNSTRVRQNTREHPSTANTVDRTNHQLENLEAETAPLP

Columns and labels:
[1] = biological target: Delta-type opioid receptor (Rattus norvegicus) (UniProt P33533); experiment: Tested for antagonistic activity against delta opioid receptor from mouse vas deferens, using DPDPE as agonist
[2] = biological target: Delta-type opioid receptor (Rattus norvegicus) (UniProt P33533); experiment: Tested for antagonistic activity against delta opioid receptor from mouse vas deferens, using [Leu5]- enkephalin as agonist
[3] = biological target: Delta-type opioid receptor (Rattus norvegicus) (UniProt P33533); experiment: Tested for antagonistic activity against delta opioid receptor from mouse vas deferens, using [D-Ala2] Deltorphin 1 as agonist
[4] = biological target: Delta-type opioid receptor (Rattus norvegicus) (UniProt P33533); experiment: Tested for antagonistic activity against delta Opioid Receptor from mouse vas deferens, using [D-Ala2] Deltorphin 1 as agonist
[5] = biological target: Delta-type opioid receptor (Rattus norvegicus) (UniProt P33533); experiment: Relative potency to that of [Leu5]- enkephalin
[6] = biological target: Mu-type opioid receptor (Rattus norvegicus) (UniProt P33535); experiment: Relative potency to that of [Leu5]- enkephalin

SMILES	Ke [1]	Ke [2]	Ke [3]	Ke [4]	Potency [5]	Potency [6]
N[C@@H](Cc1ccc(O)cc1)C(=O)N1Cc2ccccc2C[C@H]1C(=O)N[C@@H](Cc1ccccc1)C(=O)O	16.1 nM	11.7 nM	12.6 nM	8.23 nM	–	–
Oc1ccc2c3c1O[C@H]1c4[nH]c5ccccc5c4C[C@@]4(O)[C@@H](C2)N(CC2CC2)CC[C@]314 [NALTRINDOLE]	–	–	–	–	13.9	–
CC(C)C[C@H](NC(=O)[C@H](Cc1ccccc1)NC(=O)CNC(=O)CNC(=O)[C@@H](N)Cc1ccc(O)cc1)C(=O)O	–	–	–	–	1	1
CC(C)[C@H](NC(=O)[C@H](CC(=O)O)NC(=O)[C@H](Cc1ccccc1)NC(=O)[C@@H](C)NC(=O)[C@@H](N)Cc1ccc(O)cc1)C(=O)N[C@H](C(=O)NCC(N)=O)C(C)C [DELTORPHIN C]	–	–	–	–	0.393	0.0024
